# According to IntAct's records for PubMed 28698298:
# B1: Eukaryotic translation initiation factor 4E-binding protein 1 (Homo sapiens), Q13541 (parent)
# chain: MSGGSSCSQTPSRAIPATRRVVLGDGVQLPPGDYSTTPGGTLFSTTPGGTRIIYDRKFLMECRNSPVTKTPPRDLPTIPGVTSPSSDEPPMEASQSHLRNSPEDKRAGGEESQFEMDI
# Variants of: B1
# Settings: with EIF4E2, O60573-1
row,effect of a mutation on the interaction,Variant
1,disrupting interaction strength,MSGGSSCSQTPSRAIPATRRVVLGDGVQLPPGDYSTTPGGTLFSTTPGGTRIIADRKFAMECRNSPVTKTPPRDAPTIPGATSPSSDEPPMEASQSHLRNSPEDKRAGGEESQFEMDI [Y54A;L59A;L75A;V81A]
2,disrupting interaction strength,MSGGSSCSQTPSRAIPATRRVVLGDGVQLPPGDYSTTPGGTLFSTTPGGTRIIADRKFAMECRNSPVTKTPPRDLPTIPGVTSPSSDEPPMEASQSHLRNSPEDKRAGGEESQFEMDI [Y54A;L59A]
3,disrupting interaction strength,MSGGSSCSQTPSRAIPATRRVVLGDGVQLPPGDYSTTPGGTLFSTTPGGTRIIYDRKFLMECRNSPVTKTPPRDAPTIPGATSPSSDEPPMEASQSHLRNSPEDKRAGGEESQFEMDI [L75A;V81A]
